Results as given in ChEMBL document CHEMBL1250454, “Oral oxytocin antagonists” (J Med Chem, 2010).

Biological target: T1, Oxytocin receptor (Rattus norvegicus, UniProt P70536)
T1 sequence (P70536 whole entry): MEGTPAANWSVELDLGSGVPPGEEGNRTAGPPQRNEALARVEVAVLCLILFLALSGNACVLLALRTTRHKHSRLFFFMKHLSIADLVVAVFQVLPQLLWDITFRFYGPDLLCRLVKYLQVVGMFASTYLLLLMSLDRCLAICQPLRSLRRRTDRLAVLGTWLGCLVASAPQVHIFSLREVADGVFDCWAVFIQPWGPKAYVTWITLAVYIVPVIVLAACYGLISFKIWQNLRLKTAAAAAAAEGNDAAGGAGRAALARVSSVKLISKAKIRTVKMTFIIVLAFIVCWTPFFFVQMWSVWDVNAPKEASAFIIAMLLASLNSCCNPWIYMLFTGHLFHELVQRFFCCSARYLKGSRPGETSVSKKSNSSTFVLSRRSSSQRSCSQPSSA
Experiment: Displacement of [3H]-oxytocin from oxytocin receptor in rat uterus tissue
Format: tissue-based

Cc1ccc(S(=O)(=O)N2CCC3(C=Cc4ccccc43)CC2)cc1
Ki: 1600 nM
